Patent US6545043B1 (priority 1997, dated 2003)

Assays:
[1] = test system: adult house fly (Musca domestica); experiment: Fumigation assay, adult house fly; settings: for effectiveness as fumigant: compared with standards dichlorvos/chloropicrin; for times less toxic/effective than chloropicrin: fumigation, adult house fly
[2] = test system: lesser grain borer (Rhizopertha dominica); experiment: Fumigation assay, lesser grain borer; settings: for effectiveness as fumigant: compared with standards dichlorvos/chloropicrin

Row | Compound | effectiveness as fumigant [1] | effectiveness as fumigant [2] | times less toxic/effective than chloropicrin [1] | times less effective than chloropicrin ([2]; fumigation, lesser grain borer) | times more effective than chloropicrin ([2]; fumigation, lesser grain borer)
1 | C=CCSC#N [ATC, allyl thiocyanate] | highly effective | highly effective |  |  | 
2 | C=CCN=C=S [AITC, allyl isothiocyanate] | highly effective | highly effective |  |  | 
3 | methyl ethyl ketone cyanohydrin | highly effective | highly effective |  |  | 
4 | C=CC(O)CC#N (stereo not shown) [CHB, 1-cyano-2-hydroxy-3-butene] |  | relatively weak (If the compound has an LC50 greater than five times higher than the standard, it is considered to be a relatively weak fumigant) | approximately 77 times | 70 times | 
5 | C=CC(O)C#N (stereo not shown) [CHP, 3-cyano-3-hydroxy-1-propene] | highly effective | highly effective | 1.9 times |  | 
6 | CC(C)(O)C#N [DMK-CNOH, dimethyl ketone cyanohydrin] | highly effective | highly effective |  |  | 
7 | C=CCC#N [AC, allyl cyanide] |  | highly effective | about 46 times |  | 
8 | C=CC(C#N)OC(C)=O (stereo not shown) [CHP-Ace, CHP acetate] |  | highly effective | about 20 times |  | 
9 | C=CC(C#N)OC(=O)CC (stereo not shown) [CHP-Pro, CHP propionate] | relatively weak to moderately effective | highly effective | about 60 times |  | about 1.5 times
